By UniProt entry, the sequences of proteins in these tests, tags left out.
Melanocortin receptor 4 (Homo sapiens), P32245, UniProt P32245, whole entry, looked up: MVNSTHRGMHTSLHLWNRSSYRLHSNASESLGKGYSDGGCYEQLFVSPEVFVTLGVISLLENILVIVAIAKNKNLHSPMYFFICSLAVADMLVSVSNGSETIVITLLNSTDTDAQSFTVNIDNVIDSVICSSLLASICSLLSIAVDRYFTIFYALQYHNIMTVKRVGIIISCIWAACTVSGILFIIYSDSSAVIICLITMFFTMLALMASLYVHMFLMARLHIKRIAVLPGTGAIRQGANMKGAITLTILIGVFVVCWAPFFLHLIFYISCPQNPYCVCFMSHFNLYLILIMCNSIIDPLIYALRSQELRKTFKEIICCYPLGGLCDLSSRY

# Yeast UUG start: alters start codon recognition fidelity in yeast; S. cerevisiae UUG-firefly luciferase reporter, luminescence/redox ratio; activity score, % at 18.7 µM; actives 0.13% (n = 350,000); AID 602363;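 active = replicate mean at a twofold rise or more, about +100% in these data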;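 also: firefly luciferase made from a UUG start codon reports start codon fidelity; reporter light over untreated wells divided by growth signal over untreated wells; some hits fall short of that in this replicate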
# MC4R ag barr: MC4R agonists recruiting beta-arrestin, primary screen, cell-based, luminescence, agonist arm of biased-ligand search. 0.98% of 360,000 active. Melanocortin receptor 4 (Homo sapiens), P32245. U2OS MC4R beta-arrestin complementation; percent of melanotan II response, DMSO zero. activation, % at 8.9 µM;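 active means activation above a per-plate cutoff, the mean activation of sample wells on that plate plus 3 SD, cut at about 8% in these data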
# HDAC3 inhib: HDAC3 deacetylase inhibitors, primary screen, biochemical, fluorescence, cell-free homogeneous | Histone deacetylase 3 (Homo sapiens), O15379 | recombinant HDAC3, fluorogenic peptide/trypsin coupled | inhibition, % at 8.3 µM | 0.15% of 320,000 active; in the data active means inhibition above about 26%, passing the limit was not always enough; inconclusive means no clear call, values can overlap the other calls
# NALP1 inh: NALP1 inflammasome inhibitors in reconstituted yeast, colorimetric, S. cerevisiae, triplicate retest; S. cerevisiae NALP1/ASC/caspase-1 growth, X-gal OD620, 72 h; inhibition, % at 10 µM; 0.61% of 280,000 active; AID 2071, 2009; in the data active means inhibition mostly above about 24%, no sharp cut-off; inactive means mostly below about 32%
# ALR inh: inhibitors of human ALR sulfhydryl oxidase, primary screen, biochemical, H2O2 detection, HRP-luminol luminescence, single point. inhibition, % (concentration not given with the values). 290,000 compounds, 3.8% hits. purified ALR, DTT oxidation. AID 485317, 2010;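 active means mean and each replicate at 75% or more; inconclusive means only one of the two met; inactive means neither met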;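 further: stock transfer was 7.5 nL into about 7.5 µL; 0% = neutral wells and 100% = wells with inactivated enzyme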
# MC4R antag cAMP: MC4R antagonists of cAMP signaling, primary screen, cell-based, TR-FRET, antagonist arm of biased-ligand search | 0.48% of 360,000 active | MC4R-expressing cells, MTII-stimulated cAMP, LANCE TR-FRET | inhibition, % at 6.5 µM;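 active means inhibition above its plate's cutoff, the mean of tested wells on that plate plus 3 SD, cut at about 29% in these data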;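 further: 0% = Melanotan II alone and 100% = Melanotan II plus saturating MCL0020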
#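 Assay system: human MC4R-expressing U2OS cells; reagent: Melanotan II stimulation of cells; dosing: 6.5 µM single dose; timing: compound 30 min, challenge 1 h, detection 1 h; signal: TR-FRET cAMP assay; replicates: one well per compound, no replicates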
# An asterisk follows results filed as active; ? = inconclusive; nt = no result. In the library only some 4.2% were active in any assay of this set; here they are far more common.
SMILES	HDAC3 inhib	NALP1 inh	MC4R antag cAMP	Yeast UUG start	ALR inh	MC4R ag barr
Cc1ccc(-c2nc3ccccc3o2)cc1NC(=S)NC(=O)c1cccs1	-2	15	13	-7	-1	23*
CC(=O)Nc1ccc(NC(=O)c2ccc(-c3ccccc3Cl)o2)cc1	nt	nt	-1	nt	nt	3
O=C(Nc1ccccc1)c1ccc(-c2ccccc2Cl)o1	3	18	3	-12	-3	8.5*
CCCC(=O)Nc1ccc2c(c1)C(=O)N(C)[C@@H]1CC[C@@H](CC(=O)NCc3ccccc3F)O[C@@H]1CO2	nt	nt	nt	18	nt	nt
C[C@H](CO)N1C[C@H](C)[C@@H](CN(C)Cc2ccc(C(F)(F)F)cc2)Oc2ccc(NC(=O)CCN3CCOCC3)cc2CC1=O	nt	nt	nt	2	nt	nt
COc1ccc2[nH]c3c(=O)n(/N=C/[C@H]4C(C)C=C(C)CC4C)c(=O)[nH]c3c2c1 (stereo not given in full)	-12	28	20	1	-12	8.3*
COc1ccc2c(c1)[nH]c1c(=O)n(/N=C/C3C(C)C=C(C)CC3C)c(=O)[nH]c12 (stereo not given)	4	-14	5	nt	1	-1
CCCc1nc(SC2CCCC2)c2c(=O)n(C)c(=O)n(C)c2n1	nt	27	1	1	98*	0
CCCc1nc(SCC(=O)N2CCC(C)CC2)c2c(=O)n(C)c(=O)n(C)c2n1	-4	nt	3	nt	6	2
O=C(/C=C/c1cc2c(cc1Br)OCO2)NCc1ccc(F)cc1	3	33	3	-5	0	8
COc1ccc(CNC(=O)/C=C/c2cc3c(cc2Br)OCO3)cc1	8	9	-5	-17	9	8.5*
CCOC(=O)N1CCN(CC(O)COc2ccccc2C(C)C)CC1 (stereo not given)	10	15	-4	-14	-3	1
CCOC(=O)N1CCN(CC(O)COc2ccccc2C(C)CC)CC1 (stereo not given)	2	26*	5	-1	2	-1
Cc1ccc(S(=O)(=O)CCC(=O)OCC(=O)c2cc(C)ccc2C)cc1	-5	nt	15	nt	-4	-1
Cc1ccc(S(=O)(=O)CCC(=O)c2ccc(O)cc2O)cc1	4	-67	-11	1	98*	0
CSc1nc(-c2ccco2)nn1C(=O)c1cccs1	?	4	0	-19	6	-2
O=C(c1cccs1)n1nc(-c2ccco2)nc1SCc1ccccc1	65*	6	nt	nt	52	nt
CC1=C(C(=O)NC2CC(C)(C)Cc3c2cnn3-c2cccc(F)c2)OCCO1 (stereo not given)	-5	26	-2	-5	97*	-1
Cc1cc(C(=O)NC2CC(C)(C)Cc3c2cnn3-c2cccc(F)c2)n(C)n1 (stereo not given)	7	1	2	3	4	-4
CC1(C)Cc2c(cnn2-c2cccc(F)c2)C(NC(=O)c2ccc(=O)[nH]n2)C1 (stereo not given)	8	20	5	-7	92*	-1
Cc1ccc(S(=O)(=O)N(C)C[C@@H]2OCCCC[C@@H](C)Oc3ccc(NS(C)(=O)=O)cc3C(=O)N([C@H](C)CO)C[C@H]2C)cc1	nt	nt	nt	18	nt	nt
O=C(C1=C[C@H](c2csc3ccccc23)C[C@H](OCCCCO)O1)N1CCN(Cc2ccccc2)CC1	5	30*	20	2	-16	1
Cc1ccc2nc(NC(=O)CSc3nc(=O)n(CCN(C)C)c4c3CCCC4)sc2c1	-2	nt	0	-2	98*	-2
CN(C)CCn1c2c(c(SCC(=O)Nc3ccc4c(c3)OCCO4)nc1=O)CCCC2	0	nt	-10	-7	97*	-1

# 5 structures out of the list, arranged by heavy-atom count, lowest first.
SMILES	HDAC3 inhib	NALP1 inh	MC4R antag cAMP	Yeast UUG start	ALR inh	MC4R ag barr
CSc1nc(-c2ccco2)nn1C(=O)c1cccs1	?	4	0	-19	6	-2
Cc1ccc(S(=O)(=O)CCC(=O)c2ccc(O)cc2O)cc1	4	-67	-11	1	98*	0
CCOC(=O)N1CCN(CC(O)COc2ccccc2C(C)CC)CC1 (stereo not given)	2	26*	5	-1	2	-1
Cc1cc(C(=O)NC2CC(C)(C)Cc3c2cnn3-c2cccc(F)c2)n(C)n1 (stereo not given)	7	1	2	3	4	-4
CN(C)CCn1c2c(c(SCC(=O)Nc3ccc4c(c3)OCCO4)nc1=O)CCCC2	0	nt	-10	-7	97*	-1

# Next section.
SMILES	HDAC3 inhib	NALP1 inh	MC4R antag cAMP	Yeast UUG start	ALR inh	MC4R ag barr
Cc1ccc(NC(=O)CSc2nc(=O)n(CCCN(C)C)c3c2CCC3)c(C)c1	2	nt	8	-15	-10	-2
CN(C)CCn1c2c(c(SCC(=O)Nc3cccc(C(F)(F)F)c3)nc1=O)CCCC2	7	nt	-4	-5	98*	2
CCN(CC)CCn1c2c(c(SCC(=O)Nc3ccc4c(c3)OCCO4)nc1=O)CCC2	-6	nt	12	nt	-353	-1
CN(C)CCn1c2c(c(SCC(=O)Nc3ccc4c(c3)OCCO4)nc1=O)CCC2	-4	nt	2	-17	97*	-2
Cc1noc(C)c1NC(=O)N(C)C[C@H]1Oc2ccc(NC(=O)Nc3cccc4ccccc34)cc2C(=O)N([C@@H](C)CO)C[C@H]1C	nt	nt	nt	3	nt	nt
CCOC(=O)CSc1n[nH]c(NC(=O)c2cccc(C(F)(F)F)c2)n1	?	-4	16	-2	99*	-2
COCCNc1nc(Oc2cccc(NC(C)=O)c2)c2sc(-c3ccccc3)cc2n1	nt	nt	23	nt	nt	9.1*
Cc1ccc(S(=O)(=O)Nc2ccc3c(c2)C(=O)N([C@@H](C)CO)C[C@H](C)[C@@H](CN(C)C)OCCCC[C@@H](C)O3)cc1	nt	nt	nt	4	nt	nt
CC1(C)CC(=O)C2=C(C1)Nc1ccccc1[S@]2=O	5	-15	18	nt	nt	1
O=S1c2ccccc2Nc2ccccc21	2	nt	4	-9	87*	1
CN(C)CC(=O)Nc1ccc2c(c1)[C@H]1C[C@H](CC(=O)NCc3ccc(Cl)cc3)O[C@H](CO)[C@H]1O2	nt	nt	nt	-7	nt	nt
NC1=NC2(CCCC2)n2c(nc3ccccc32)N1	-5	18	12	-3	4	-2
CCC1(C)N=C(N)Nc2nc3cc(C)c(C)cc3n21 (stereo not given)	nt	20	5	-17	99*	-1
O=S(=O)(N[C@H]1CC[C@@H](CCn2cc(-c3cccc(F)c3)nn2)O[C@@H]1CO)c1ccc(Cl)cc1	nt	nt	nt	9	nt	nt
CCOC(=O)NC(=O)/C(C#N)=N/Nc1ccc(F)cc1	8	38*	-4	-6	27	-1
COCCn1c(=S)[nH]c2ccc(N(C)C)cc2c1=O	8	-29	0	5	97*	0
CCOC(=O)C1CCN(C(=O)CS(=O)Cc2nc(-c3ccc(C)cc3)oc2C)CC1 (stereo not given)	3	-28	3	3	100*	1
COc1ccc(N2CCN(C(=O)CS(=O)Cc3nc(-c4ccc(OC)c(OC)c4)oc3C)CC2)cc1 (stereo not given)	-7	-4	-1	-4	-2	-4
Cc1cccc(-c2nc(CS(=O)CC(=O)N3CCN(C)CC3)c(C)o2)c1 (stereo not given)	2	10	7	-6	99*	0
